Assay results published in PMC11905624 (BMC Biology, 2025).

Chains of the proteins cited; added tags and fusions are not shown.
UniProt P30411, whole entry: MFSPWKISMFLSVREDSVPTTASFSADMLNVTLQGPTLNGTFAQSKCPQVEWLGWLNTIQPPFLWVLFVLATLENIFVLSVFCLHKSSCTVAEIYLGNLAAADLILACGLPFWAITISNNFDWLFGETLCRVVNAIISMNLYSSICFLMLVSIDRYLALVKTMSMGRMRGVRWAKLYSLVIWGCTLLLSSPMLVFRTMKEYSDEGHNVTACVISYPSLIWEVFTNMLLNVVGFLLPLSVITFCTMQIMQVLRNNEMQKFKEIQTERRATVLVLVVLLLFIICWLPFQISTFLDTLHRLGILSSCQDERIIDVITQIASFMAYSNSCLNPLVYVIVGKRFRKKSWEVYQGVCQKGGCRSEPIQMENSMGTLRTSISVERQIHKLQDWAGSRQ

Target: T1, B2 receptor (Homo sapiens, UniProt P30411)
T1 construct: endogenous in cells; host or cells: HaCaT
Experiment: Intracellular calcium flux in HaCaT cells
Assay type: cell-based
Details: 3 µM HOE140, 100 nM BK/cBK, n = 2
Description: HaCaT cells were seeded onto 96-well plates and, upon reaching full confluence, were starved for 3 h (medium without FBS). […] After 1.5 h in 37 °C, fluorescence intensity (485/525 nm) was recorded continuously for 5 min using FlexStation 3 (Molecular Devices). […] FBS (3%) served as positive control. Results were calculated as area under the curves of RFU fold change from the signal recorded at baseline and adjusted to % of maximum response (FBS) curve. Non-linear regression analyses were performed to generate dose–response curves and calculate EC50 values.

Substance: HOE140 [reference compound]
- Effect of B2 inhibitor on calcium influx induced by BK/cBK: blocked the intracellular calcium influx
